By UniProt entry, the sequences of proteins in these tests, tags left out. Where a name states a change or a piece, a line headed by the entry shows the natural chain unless it says otherwise. Residues count along the entry.
UniProt P06536: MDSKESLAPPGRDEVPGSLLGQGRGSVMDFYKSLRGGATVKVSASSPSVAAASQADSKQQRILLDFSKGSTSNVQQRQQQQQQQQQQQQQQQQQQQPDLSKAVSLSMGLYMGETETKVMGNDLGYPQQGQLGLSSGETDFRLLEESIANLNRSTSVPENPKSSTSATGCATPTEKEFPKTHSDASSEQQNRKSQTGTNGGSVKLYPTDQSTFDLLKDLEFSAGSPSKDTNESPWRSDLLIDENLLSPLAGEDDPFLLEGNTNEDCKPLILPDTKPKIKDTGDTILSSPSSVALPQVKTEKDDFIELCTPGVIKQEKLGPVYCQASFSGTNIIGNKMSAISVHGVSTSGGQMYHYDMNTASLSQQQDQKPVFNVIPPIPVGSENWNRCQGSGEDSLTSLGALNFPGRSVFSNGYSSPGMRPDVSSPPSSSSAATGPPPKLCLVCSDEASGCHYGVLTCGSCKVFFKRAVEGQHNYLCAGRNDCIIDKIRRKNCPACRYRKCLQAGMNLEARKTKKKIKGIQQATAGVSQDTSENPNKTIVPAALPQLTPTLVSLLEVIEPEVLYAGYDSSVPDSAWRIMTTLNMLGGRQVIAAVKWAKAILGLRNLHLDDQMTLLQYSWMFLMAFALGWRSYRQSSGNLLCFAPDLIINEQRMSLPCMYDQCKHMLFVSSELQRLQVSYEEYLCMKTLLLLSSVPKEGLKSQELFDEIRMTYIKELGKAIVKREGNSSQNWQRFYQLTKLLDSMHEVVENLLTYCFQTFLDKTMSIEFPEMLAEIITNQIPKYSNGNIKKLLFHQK
UniProt P08515, whole entry, looked up: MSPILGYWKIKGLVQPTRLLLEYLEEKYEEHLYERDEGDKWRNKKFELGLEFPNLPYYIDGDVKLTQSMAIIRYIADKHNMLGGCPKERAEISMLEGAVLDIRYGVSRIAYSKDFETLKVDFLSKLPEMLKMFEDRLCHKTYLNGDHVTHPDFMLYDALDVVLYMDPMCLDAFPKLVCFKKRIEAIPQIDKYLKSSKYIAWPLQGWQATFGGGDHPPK
UniProt P06401: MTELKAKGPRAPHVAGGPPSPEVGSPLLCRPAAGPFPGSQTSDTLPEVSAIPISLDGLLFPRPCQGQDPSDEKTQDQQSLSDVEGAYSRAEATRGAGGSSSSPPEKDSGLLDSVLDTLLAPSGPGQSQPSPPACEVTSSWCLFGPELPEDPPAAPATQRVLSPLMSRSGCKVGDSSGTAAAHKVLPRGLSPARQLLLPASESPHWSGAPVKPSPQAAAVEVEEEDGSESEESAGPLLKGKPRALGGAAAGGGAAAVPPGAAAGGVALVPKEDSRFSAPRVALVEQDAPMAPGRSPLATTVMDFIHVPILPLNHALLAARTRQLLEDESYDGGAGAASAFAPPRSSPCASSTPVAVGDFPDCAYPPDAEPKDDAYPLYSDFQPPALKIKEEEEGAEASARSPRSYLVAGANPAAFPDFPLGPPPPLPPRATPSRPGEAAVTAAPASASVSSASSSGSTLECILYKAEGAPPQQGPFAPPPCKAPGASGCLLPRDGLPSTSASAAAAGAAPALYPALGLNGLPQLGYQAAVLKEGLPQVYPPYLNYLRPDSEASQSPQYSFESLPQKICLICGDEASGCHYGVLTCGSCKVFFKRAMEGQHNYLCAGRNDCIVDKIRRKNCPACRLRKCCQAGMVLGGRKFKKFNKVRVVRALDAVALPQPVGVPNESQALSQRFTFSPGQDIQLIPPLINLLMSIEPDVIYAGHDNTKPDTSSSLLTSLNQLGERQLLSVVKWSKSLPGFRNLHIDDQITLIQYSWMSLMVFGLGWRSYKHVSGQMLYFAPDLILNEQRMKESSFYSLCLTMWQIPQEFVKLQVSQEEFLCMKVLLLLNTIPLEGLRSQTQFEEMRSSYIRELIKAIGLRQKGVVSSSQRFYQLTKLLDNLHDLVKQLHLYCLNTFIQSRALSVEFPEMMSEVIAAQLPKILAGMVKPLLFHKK
UniProt P10275, 633-919 limits assumed: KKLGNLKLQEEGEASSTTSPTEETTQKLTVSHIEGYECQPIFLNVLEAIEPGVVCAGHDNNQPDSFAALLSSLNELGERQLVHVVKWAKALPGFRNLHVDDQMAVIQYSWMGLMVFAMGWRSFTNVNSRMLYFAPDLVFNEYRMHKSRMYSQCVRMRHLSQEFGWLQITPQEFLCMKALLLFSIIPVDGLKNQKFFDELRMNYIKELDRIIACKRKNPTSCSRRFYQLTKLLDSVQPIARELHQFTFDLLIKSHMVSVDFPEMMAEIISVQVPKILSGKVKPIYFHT
UniProt P10275, whole entry T878A, looked up: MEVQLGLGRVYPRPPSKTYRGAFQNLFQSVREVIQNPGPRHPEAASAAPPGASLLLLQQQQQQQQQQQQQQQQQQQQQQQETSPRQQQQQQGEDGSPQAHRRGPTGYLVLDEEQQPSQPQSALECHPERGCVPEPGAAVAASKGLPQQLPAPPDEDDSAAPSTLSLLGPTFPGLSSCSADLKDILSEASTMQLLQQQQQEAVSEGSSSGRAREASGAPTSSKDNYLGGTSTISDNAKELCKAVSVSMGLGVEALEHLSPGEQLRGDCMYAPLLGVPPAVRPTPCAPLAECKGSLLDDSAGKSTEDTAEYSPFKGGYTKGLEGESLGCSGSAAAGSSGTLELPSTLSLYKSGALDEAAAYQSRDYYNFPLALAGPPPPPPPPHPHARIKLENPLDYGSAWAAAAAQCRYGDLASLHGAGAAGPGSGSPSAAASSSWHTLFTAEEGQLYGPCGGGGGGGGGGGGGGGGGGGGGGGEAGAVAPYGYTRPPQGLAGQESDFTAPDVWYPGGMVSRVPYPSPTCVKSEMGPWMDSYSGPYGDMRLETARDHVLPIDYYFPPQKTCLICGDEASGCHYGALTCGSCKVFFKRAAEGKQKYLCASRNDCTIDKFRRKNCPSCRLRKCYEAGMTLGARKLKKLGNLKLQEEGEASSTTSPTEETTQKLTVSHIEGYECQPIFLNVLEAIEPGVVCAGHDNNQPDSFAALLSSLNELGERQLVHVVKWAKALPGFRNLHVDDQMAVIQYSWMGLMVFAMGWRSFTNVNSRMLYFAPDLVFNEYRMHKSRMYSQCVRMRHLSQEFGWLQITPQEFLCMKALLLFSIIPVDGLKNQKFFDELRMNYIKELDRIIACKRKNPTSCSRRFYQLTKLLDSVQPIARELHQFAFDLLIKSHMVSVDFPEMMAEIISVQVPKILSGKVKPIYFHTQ
UniProt P10275, 141-486 limits assumed: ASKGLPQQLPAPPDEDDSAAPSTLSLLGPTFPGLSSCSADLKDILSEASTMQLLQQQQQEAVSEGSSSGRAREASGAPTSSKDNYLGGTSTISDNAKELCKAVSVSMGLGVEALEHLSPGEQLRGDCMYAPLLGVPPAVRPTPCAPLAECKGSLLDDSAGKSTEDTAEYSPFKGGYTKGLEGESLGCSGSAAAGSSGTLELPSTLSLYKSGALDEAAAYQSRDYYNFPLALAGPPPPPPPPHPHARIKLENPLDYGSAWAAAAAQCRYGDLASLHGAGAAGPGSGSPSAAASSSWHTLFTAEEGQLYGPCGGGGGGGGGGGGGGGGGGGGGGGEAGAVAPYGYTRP

According to patent publication US20230303496A1, “SELECTIVE ANDROGEN RECEPTOR COVALENT ANTAGONISTS (SARCAs) AND METHODS OF USE THEREOF” (published 2023):

How the values were obtained:
GR wildtype (wt) = GR wildtype (wt) (Rattus norvegicus, UniProt P06536); experiment: GR transactivation
[1] = Metabolic stability in mouse liver microsomes; details: for DMPK(MLM) T1/2 / DMPK(MLM) T1/2 (min): Table 1; for stability to in vitro metabolism in MLM (in words): FIG. 15
LNCaP cells = experiment: LNCaP proliferation (SRB assay); details: FIG. 38, 0.1 nM R1881; at 1, 3 and 10 μM
[2] = test system: PSA and FKBP5 in LNCaP cells; experiment: LNCaP gene expression assay; details: FIG. 39
[3] = test system: AR-target tissues prostate and seminal vesicles; experiment: In vivo AR antagonism (Hershberger assay) in intact rats; details: for effect on prostate and seminal vesicles weight normalized to body weight (in words): FIGS. 53A, 53B, 20 mg/kg for 13 days
[4] = Metabolic stability in rat liver microsomes
[5] = molecular target: glutathione S-transferase (GST) (Schistosoma japonicum, UniProt P08515); experiment: Mass spectrometry: cross-reactivity with GST; details: for cross-reaction with GST: 100 μM, for 1 as % of the AF-1 modifications
PR wildtype (wt) = PR wildtype (wt) (Homo sapiens, UniProt P06401); experiment: PR transactivation
AR wildtype (wt) = AR wildtype (wt) (Homo sapiens, UniProt P10275); experiment: Transactivation assay with wt AR (IC50)
AR = AR (Homo sapiens, UniProt P10275); experiment: Schild's plot, AR transactivation with R1881 dose-response; details: Table 2, second part of cell
hAR-LBD (633-919) = hAR-LBD (633-919) (Homo sapiens, UniProt P10275); experiment: Ligand binding assay (Ki) to AR-LBD; details: [3H]mibolerone, recombinant AR-LBD; for Ki: read-out: Binding Ki (nm) (DHT= 1nM)
AR full length (AR FL) = AR full length (AR FL) (Homo sapiens, UniProt P10275, T878A); experiment: AR full length degradation (Western blot); details: for AR degradation: Table 2
[6] = molecular target: AR splice variant (AR-V7) (Homo sapiens, UniProt P10275); experiment: AR-SV / AR-V7 degradation (Western blot); details: for SARD Activity S.V. (22RV1) % degradation at 10 uM: 22RV1, 10 uM
AR AF-1 (A.A. 141-486) = AR AF-1 (A.A. 141-486) (Homo sapiens, UniProt P10275); experiment: Mass spectrometry of tryptic digests: covalent binding to AR AF-1
LNCaP-AR xenograft = LNCaP-AR xenograft in intact NSG mice; details: 60 mpk, 28 days
[7] = test system: MDA-MB-453 TNBC xenograft; experiment: MDA-MB-453 TNBC xenograft in NSG mice; details: 60 mpk, 28 days
[8] = test system: LNCaP cells over-expressing AR; experiment: AR-target gene expression in LNCaP cells over-expressing AR; details: FIG. 47
NFkB = NFkB transactivation (p65 and NFkB-LUC)
[9] = Rat pharmacokinetics, serum by LC-MS/MS; details: 20 mg/kg oral
[10] = read-out: GR antagonism (IC50 nM), Table 2
[11] = read-out: PR antagonism (IC50 nM), Table 2
[12] = read-out: AR antagonism (IC50 nM), Table 2
[13] = read-out: Wt. IC50, Table 1, with 0.1 nM R1881
[14] = read-out: wtAR transactivation IC50, FIG. 43
[15] = 1 μM (first of two values in cell)
[16] = 10 μM (second of two values in cell)
[17] = read-out: wtAR transactivation IC50, FIG. 41
[18] = single value in cell, 1 or 10 μM not stated

N#Cc1ccc(NC(=O)C(Cn2cc(F)cn2)Cn2cc(F)cn2)cc1C(F)(F)F
GR inhibition (in words) (GR wildtype (wt)): did not demonstrate significant inhibition of GR | IC50 (GR wildtype (wt); [10]): > 1000 nM | DMPK(MLM) T1/2 [1]: 26.98 min

CNC(=O)c1ccc(N2C(=S)N(c3ccc(C#N)c(C(F)(F)F)c3)C(=O)C2(C)C)cc1F
antiproliferative efficacy reached (LNCaP cells): approximately 40% | AR dependent gene expression of PSA and FKBP5 (in words) [2]: dose-dependently decreased

C=C(Cn1cc(F)cn1)C(=O)Nc1ccc(C#N)c(C(F)(F)F)c1
effect on prostate and seminal vesicles weight normalized to body weight (in words) [3]: inhibited AR-target tissues prostate and seminal vesicles | IC50 (GR wildtype (wt); read-out: GR IC50, FIG. 23): 776 nM | IC50 (GR wildtype (wt); [10]): 1040 nM | AR dependent gene expression of PSA and FKBP5 (in words) [2]: dose-dependently decreased | time stable in RLM ([4]; FIG. 20): > 60 min | estimated half-life in RLM ([4]; FIG. 20, Phase I stability): about 84 min | cross-reaction with GST [5]: about 10% | IC50 (PR wildtype (wt); [11]): 745 nM | half-life in MLM ([1]; FIG. 21, Phase I and II conditions): 41 min | DMPK(MLM) T1/2 (min) [1]: Infinity

C=C(Cn1ccc2cc(F)ccc21)C(=O)Nc1ccc(C#N)c(C(F)(F)F)c1
IC50 (GR wildtype (wt); [10]): 5760 nM | IC50 (AR wildtype (wt); [12]): 4950 nM | IC50 (AR wildtype (wt); [13]): 4950 nM | IC50 (AR wildtype (wt); [14]): 6530 nM | Schild's plot (AR): N.D./Yes (N.D.)/(see Figures 8, 11)

C/C(=C\C(=O)Nc1ccc(C#N)c(C(F)(F)F)c1)n1cc(F)cn1
IC50 (GR wildtype (wt); [10]): 193 nM | inhibition of wtAR transactivation (in words) (AR wildtype (wt)): comparable | IC50 (AR wildtype (wt); [12]): 364 nM | IC50 (AR wildtype (wt); [13]): 364 nM | IC50 (AR wildtype (wt); read-out: wtAR transactivation IC50, FIG. 6, COS7 cells, 0.1 nM R1881): 364 nM | Ki (hAR-LBD (633-919)): 0.319 µM | SARD Activity Full Length % degradation at 1,10 μm (AR full length (AR FL); [15]): 8% | SARD Activity Full Length % degradation at 1,10 μm (AR full length (AR FL); [16]): 60% | IC50 (PR wildtype (wt); [11]): 465 nM | SARD Activity S.V. (22RV1) % degradation at 10 uM [6]: 45%

C/C(=C\C(=O)Nc1ccc(C#N)c(C(F)(F)F)c1)c1ccc(F)cc1
inhibition of wtAR transactivation (in words) (AR wildtype (wt)): both inhibited AR transactivation | IC50 (AR wildtype (wt); [13]): 18.2 nM | IC50 (AR wildtype (wt); [17]): 18 nM

C[C@](O)(CC1N=CC(C#N)=N1)C(=O)Nc1cnc(C#N)c(C(F)(F)F)c1 (some centres unmarked)
competition for binding to AF-1 (in words) (AR AF-1 (A.A. 141-486); pre-incubation with 100 μM competitor, then 30 μM 6): competed with 1 and 6 for binding to AF-1

N#Cc1ccc(NC(=O)/C=C/n2cc(F)cn2)cc1C(F)(F)F
IC50 (AR wildtype (wt); [12]): 1140 nM | IC50 (AR wildtype (wt); [13]): 1140 nM

C/C(=C\c1ccc(F)cc1)C(=O)Nc1ccc(C#N)c(C(F)(F)F)c1
inhibition of wtAR transactivation (in words) (AR wildtype (wt)): both inhibited AR transactivation | IC50 (AR wildtype (wt); [13]): 732 nM | IC50 (AR wildtype (wt); [17]): 732 nM

N#Cc1cnn(CC(Cn2cc(C#N)cn2)C(=O)Nc2ccc(C#N)c(C(F)(F)F)c2)c1
IC50 (AR wildtype (wt); [12]): 356 nM | IC50 (AR wildtype (wt); [13]): 356 nM | AR degradation (AR full length (AR FL)): Yes (see Figure 17) | AR (full length) degradation (in words) (AR full length (AR FL); Western blot, LNCaP, LNCaP-V7 or 22RV1 cells): less robust | SARD Activity Full Length % degradation at 1,10 μm (AR full length (AR FL); [18]): 77% | SARD Activity S.V. (22RV1) % degradation at 10 uM [6]: 0%

C=C(Cn1cc(C#N)cn1)C(=O)Nc1ccc(C#N)c(C(F)(F)F)c1
IC50 (GR wildtype (wt); read-out: GR IC50, FIG. 23): 630 nM | IC50 (GR wildtype (wt); read-out: GR IC50, FIG. 26): 1430 nM | IC50 (AR wildtype (wt); [12]): 1420 nM | IC50 (AR wildtype (wt); [13]): 1420 nM | IC50 (AR wildtype (wt); read-out: wtAR transactivation IC50, FIG. 1, COS cells): 461 nM | IC50 (AR wildtype (wt); [14]): 851 nM | Ki (hAR-LBD (633-919)): 1.23 µM | AR degradation (AR full length (AR FL)): Yes (see Figures 17 and 19) | SARD Activity Full Length % degradation at 1,10 μm (AR full length (AR FL); [18]): 0% | Schild's plot (AR): Yes/Yes (see Figures 25A/2) | alkylation / cross-reaction with GST (in words) [5]: alkylated cysteine residues in GST | MassSpec Binding (AR AF-1 (A.A. 141-486); Table 2, first part of cell): Yes/Yes (see Figures 25A/2) | IC50 (PR wildtype (wt); read-out: PR IC50, FIG. 26): 125 nM | IC50 (PR wildtype (wt); [11]): 125 nM | SARD Activity S.V. (22RV1) % degradation at 10 uM [6]: 51% | AR-V7 degradation ([6]; Table 2): Yes (see Figures 17 and 19) | stability to in vitro metabolism in MLM (in words) [1]: stable to in vitro metabolism by mouse liver microsomes | DMPK(MLM) T1/2 [1]: 18.19 min

N#Cc1ccc(NCn2ccc3cc(F)ccc32)cc1C(F)(F)F
IC50 (AR wildtype (wt); [13]): 726 nM | Binding Ki (nm) (DHT= 1nM) (hAR-LBD (633-919)): No binding | SARD Activity Full Length % degradation at 1,10 μm (AR full length (AR FL); [15]): 16% | SARD Activity Full Length % degradation at 1,10 μm (AR full length (AR FL); [16]): 80%

C=C(CO[C@@](C)(Cn1cc(C#N)cn1)C(=O)Nc1cnc(C#N)c(C(F)(F)F)c1)C(=O)OC
LNCaP-AR xenograft growth (in words) (LNCaP-AR xenograft): inhibited growth | MDA-MB-453 TNBC xenograft growth (in words) [7]: inhibited growth | prostate weight reduction relative to intact control ([3]; 20 mg/kg/day oral, 14 days): 45% and 40% | seminal vesicles weight reduction relative to intact control ([3]; 20 mg/kg/day oral, 14 days): 60% | effect on prostate and seminal vesicles weight normalized to body weight (in words) [3]: inhibited AR-target tissues prostate and seminal vesicles | GR activity, efficacy (GR wildtype (wt); FIG. 9): about 20% | IC50 (GR wildtype (wt); [10]): 6220 nM | AR-target gene expression (in words) [8]: inhibited AR-target gene expression in prostate cancer cells | AR dependent gene expression of PSA and FKBP5 (in words) [2]: dose-dependently decreased | cross-reaction with GST [5]: 2-5% | inhibition of NFkB transactivation (in words) (NFkB): not NFkB | half-life in rats (in words) [9]: long half-life in rats | stability to in vitro metabolism in MLM (in words) [1]: stable to in vitro metabolism by mouse liver microsomes | DMPK(MLM) T1/2 (min) [1]: Infinity

C/C(=C/C(=O)Nc1ccc(C#N)c(C(F)(F)F)c1)n1cc(F)cn1
SARD Activity Full Length % degradation at 1,10 μm (AR full length (AR FL); [18]): 92% | SARD Activity S.V. (22RV1) % degradation at 10 uM [6]: 26%

Where “and” joins values, the source holds several entries; their conditions need not be identical. Equal values may be shown once. Read-outs that look alike come from different tables or passages of the source.
